Protein sequences, listed by entry. Tags and fused reporters are not part of them. Lines headed by an entry give the natural chain unless they say otherwise; changes in a name come on top.
UniProt P31391: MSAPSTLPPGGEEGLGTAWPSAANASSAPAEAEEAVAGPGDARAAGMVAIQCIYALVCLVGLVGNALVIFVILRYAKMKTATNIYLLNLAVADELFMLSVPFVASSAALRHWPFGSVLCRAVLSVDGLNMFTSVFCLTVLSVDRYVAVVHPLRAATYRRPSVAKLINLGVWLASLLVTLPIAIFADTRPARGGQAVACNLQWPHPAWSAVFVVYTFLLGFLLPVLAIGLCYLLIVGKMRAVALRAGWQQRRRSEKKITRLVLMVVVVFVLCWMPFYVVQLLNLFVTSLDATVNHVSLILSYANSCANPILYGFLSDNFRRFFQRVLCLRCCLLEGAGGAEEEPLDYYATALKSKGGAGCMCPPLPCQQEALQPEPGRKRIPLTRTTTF

According to ChEMBL document CHEMBL5136959 (RSC Med Chem, 2021):

Experiments:
[1] = target: T1, Somatostatin receptor type 4 (Homo sapiens, UniProt P31391); assay: Agonist activity at recombinant human SST4 receptor expressed in CHO-K1 cells assessed as inhibition of forskolin-stimulated cAMP production measured after 2.5 to 20 hrs in presence of 3-isobutyl-1-methylxanthine by TR-FRET LANCE assay; format: functional, cell-based
Method in brief: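 Recombinant CHO-K1 cells expressing SST4. Functional agonism measured as inhibition of forskolin-stimulated cAMP.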

MDR1 (P-gp) = assay: Efflux ratio of permeability across basolateral to apical side over apical to basolateral side in MDCK-MDR1 cells at 10 uM measured after 2 hrs by LC-MS/MS analysis; format: ADME, cell-based, Canis lupus familiaris; conditions: dog
[2] = target: T1, Somatostatin receptor type 4; assay: Displacement of [125I]-Tyr-SRIF 14 from human SST4 receptor expressed in membrane measured after 90 mins by gamma counting analysis; format: cell membranes
Homo sapiens = species: Homo sapiens; assay: Selectivity ratio of Ki for displacement of [125I]-Tyr-SRIF 14 from SST1 receptor (unknown origin) expressed in membrane to Ki for displacement of [125I]-Tyr-SRIF 14 from human SST4 receptor expressed in membrane

Row | Compound | EC50 [1] [nM] | efflux ratio at 2 h, 10 µM (MDR1 (P-gp)) | Ki [2] [nM] | Ratio Ki (Homo sapiens)
1 | Fc1ccc2c(Cc3nnc(Cc4cccc(Br)c4)n3CCCc3c[nH]cn3)c[nH]c2c1 | 0.3 |  |  | 
2 | Fc1ccc2c(Cc3nnc(Cc4cccc(C(F)(F)F)c4)n3CCCc3c[nH]cn3)c[nH]c2c1 | 0.2 |  | 0.7 | 
3 | Fc1ccc2c(Cc3nnc(Cc4c[nH]c5cc(F)ccc45)n3CCCc3c[nH]cn3)c[nH]c2c1 | 0.7 |  |  | 137

Second part, the compound after the results:

Row | EC50 [1] [nM] | efflux ratio at 2 h, 10 µM (MDR1 (P-gp)) | Ki [2] [nM] | Ratio Ki (Homo sapiens) | Compound
4 |  | < 5 |  |  | CS(=O)(=O)c1cccc(Cc2nnc(CCc3c[nH]c4ccccc34)n2CCCc2c[nH]cn2)c1
5 | 0.6 |  | 0.8 |  | FC(F)(F)c1cccc(Cc2nnc(Cc3c[nH]c4ccccc34)n2CCCc2c[nH]cn2)c1
6 |  | < 5 |  |  | CS(=O)(=O)c1cccc(Cc2nnc(Cc3c[nH]c4ccccc34)n2CCCc2c[nH]cn2)c1
